From ChEMBL document CHEMBL1134342, “Current and novel approaches to the drug treatment of schizophrenia” (J Med Chem, 2001) come the findings set out here.

Experiment [1] has as its system Rodentia sp.
Experiment [2] has as its system Rodentia sp. The source holds these as a separate data set.
Experiment [3] deals with Rodentia sp. This is another data set of the same source.
Experiment [4] relates to Rodentia sp. This is another data set of the same source.
The test system of experiment [5] is Rodentia sp. The experiment can be described thus: animal or person. The conditions noted are these: read-out: MED.
The test system of experiment [6] is Rodentia sp. The experiment can be described thus: animal or person. The conditions noted are these: read-out: MED. The source holds these as a separate data set.
Experiment [7] has as its system Rodentia sp. The experiment can be described thus: animal or person. To be noted: read-out: MED. The source holds these as a separate data set.
In experiment [8] the test system is Rodentia sp. The experiment can be described thus: animal or person.

Calls of active or inactive are those of the source. No cut-off for these calls is given here.

In the case of `Clc1ccc(N2CCN(Cc3c[nH]c4ncccc34)CC2)cc1` [L-745870], the NE entry in the experiment with Rodentia sp. [1], in the experiment with Rodentia sp. [2], with Rodentia sp. [3] and with Rodentia sp. [4] was “inactive” throughout. The values for the minimal effective dose in the experiment with Rodentia sp. [5], in the experiment with Rodentia sp. [6] and with Rodentia sp. [7] were 100 mg/kg, 100 mg/kg and 30 mg/kg, respectively. In the experiment with Rodentia sp. [8], this compound came in with a 50% effective dose (ED50) of 22 mg/kg.

The ED50 is the dose that gives a 50% effect, or the effect in half of the subjects. Lower therefore signals an effect at a small dose.
